Laboratory results from article PMC9226319, “Peripherally restricted transthyretin-based delivery system for probes and therapeutics avoiding opioid-related side effects” (Nature Communications, 2022).

Test system: male Sprague-Dawley rats
Test: Gastrointestinal (GI) transit (charcoal meal) assays
Type: in vivo, rat
Settings: antagonist SC 30 min before fentanyl 1 mg/kg SC; AG10-L2-Nal 35 µmol/kg (30 mg/kg); naloxegol dose not stated in text (30 and 100 mg/kg in Supp Fig. 10)

With `C=CCN1CC[C@]23c4c5ccc(O)c4O[C@H]2[C@@H](OCCOCCOCCOCCOCCOCCOCCOC)CC[C@@]3(O)[C@H]1C5` [Naloxegol, reference compound] the “reversal of fentanyl-induced OIC” value was “effective in reversing both analgesia and OIC”.
